From PMC5236087, “A Generic Multi-Compartmental CNS Distribution Model Structure for 9 Drugs Allows Prediction of Human Brain Target Site Concentrations” (Pharmaceutical Research, 2016)
Marks after values point to notes of the source that are not given here.

How the values were obtained:
[1] = system: P-gp; settings: rat
[2] = cited from earlier work
[3] = Multi-compartmental brain PK model fitted to rat plasma and microdialysis (brainECF, CSF) data; settings: parameter estimate (RSE, %)

Cc1nc2n(c(=O)c1CCN1CCC(c3noc4cc(F)ccc34)CC1)CCCC2 [Risperidone]
increase of QPL_ECF in the presence of P-gp inhibitors [1]: 124%
Impact of active transport on QPL_ECF (covariate effect of inhibitor) ([1]; with GF120918 or tariquidar, estimate (RSE, %)): 1.24 (16.3)^b
pKa (Base) [2]: 8.8
QDIFF, drug dispersion rate in brain and CSF [3]: 0.0254 (15.0) mL/min
VPL, distribution volume of the central compartment [3]: 60000 (13.0) mL
